Counter-ions that a name gives are not always drawn.
Target: dopamine transporter (DAT) (Homo sapiens, UniProt Q01959)
Experiment: Functional reuptake inhibition, CHO-K1/hDAT cells
Type: cell-based
Set-up: expressed in transfected cells; host or cells: CHO-K1
Conditions: mean±SEM, n=3
Protocol: Three separate cell-lines expressing human monoamine transporters for dopamine (hDAT) noradrenaline (hNET) and serotonin (hSERT) were used to measure the functional reuptake inhibiting properties of the compound of formula (I) (as its hydrochloride salt). The following methods were utilised.
Human dopamine transporter (hDAT): CHO-K1/hDAT cells (8×10^4 cells/well) expressing the human dopamine transporter (hDAT) were plated on 96-well format one day before the assay. Cells were preincubated with test compound and/or vehicle in modified Tris-HEPES buffer pH 7.1 at 25° C. for 20 minutes, then 50 nM [^3H]Dopamine was added to make the total volume to 200 μl and further incubated for 10 minutes. Cells in the well were then rinsed twice, solubilized with 1% SDS lysis buffer and the lysate was counted to determine [^3H]Dopamine uptake. Non-specific signal was determined in the presence of 10 μM nomifensine. […]
Compounds were screened at 10, 1, 0.1, 0.01 and 0.001 μM. These same concentrations were concurrently applied to a separate group of untreated cells and evaluated for possible compound-induced cytotoxicity only if significant inhibition of uptake was observed. Radioactivity retained on the filters was determined by scintillation counting overnight using a Packard scintillation counter.

Protein sequences, listed by entry. Tags and fused reporters are not part of them.
UniProt Q01959, whole entry: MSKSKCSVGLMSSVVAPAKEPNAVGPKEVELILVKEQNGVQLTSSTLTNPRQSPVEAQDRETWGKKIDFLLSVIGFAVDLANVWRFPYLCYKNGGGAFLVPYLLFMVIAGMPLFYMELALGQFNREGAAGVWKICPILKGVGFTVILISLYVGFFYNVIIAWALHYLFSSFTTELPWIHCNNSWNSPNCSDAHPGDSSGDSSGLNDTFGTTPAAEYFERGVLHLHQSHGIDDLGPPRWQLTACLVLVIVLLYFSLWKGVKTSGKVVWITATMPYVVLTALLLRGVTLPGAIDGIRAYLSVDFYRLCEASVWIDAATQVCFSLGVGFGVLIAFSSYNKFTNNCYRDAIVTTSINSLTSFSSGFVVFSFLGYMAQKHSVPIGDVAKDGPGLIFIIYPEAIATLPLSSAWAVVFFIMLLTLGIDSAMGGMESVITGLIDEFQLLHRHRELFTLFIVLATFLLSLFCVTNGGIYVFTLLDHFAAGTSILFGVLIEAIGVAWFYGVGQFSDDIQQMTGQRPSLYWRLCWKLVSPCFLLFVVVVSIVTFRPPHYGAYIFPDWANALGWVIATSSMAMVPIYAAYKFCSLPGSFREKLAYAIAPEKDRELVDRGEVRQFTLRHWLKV

C[C@@H]1NC(C)(C)CO[C@@]1(O)c1cccc(Cl)c1 [Formula (I).HCl, (+)-(2S, 3S)2-(3-chlorophenyl)-3,5,5-trimethyl-2-morpholinol hydrochloride]
IC50: 440 ± 10 nM
